The values below are quoted from earlier work in patent publication US20250356984A1 (priority 2022, published 2025).

For the data set the following is noted: 2.0 mg/kg of propofol.

In the case of `CC(C)c1cccc(C(C)C)c1O` [propofol], the “time a patient is maintained within the therapeutic range” value was “approximately 8 minutes”.
